From patent US9872922B2, “Anti-EFNA4 antibody-drug conjugates” (PFIZER, INC., priority 2013, dated 2018)

Tested on: Ovarian-39 (OV39) ovarian cancer PDX
Assay: In vivo efficacy, OV39 ovarian cancer PDX
Set-up: species or system NOD/SCID mice (human tumor PDX)
Details: 1.5 mg/kg; Day 21

SMILES: COc1cccc2c1C(=O)c1c(O)c3c(c(O)c1C2=O)C[C@@](O)(C(=O)CO)C[C@@H]3O[C@H]1C[C@H](N)[C@H](O)[C@H](C)O1 [Doxorubicin, doxorubicin, reference compound]
- mean tumor volume: 106 ± 19
